Experimental findings from patent publication EP4755888A1 (ILAb Co., Ltd., priority 2023, dated 2025) are described below.

Chains of the proteins cited; added tags and fusions are not shown. Residues count along the entry.
UniProt Q9NZQ7, 19-238 limits assumed: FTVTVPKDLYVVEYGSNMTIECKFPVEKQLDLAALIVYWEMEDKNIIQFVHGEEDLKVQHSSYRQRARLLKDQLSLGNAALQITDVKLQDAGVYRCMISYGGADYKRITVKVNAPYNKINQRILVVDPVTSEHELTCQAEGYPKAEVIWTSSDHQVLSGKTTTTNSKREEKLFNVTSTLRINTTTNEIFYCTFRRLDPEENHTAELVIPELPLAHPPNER

Bounds are passed on as bounds.

The target of the test is PD-1/PD-L1 (Homo sapiens, UniProt Q9NZQ7). Description: TR-FRET PD-1/PD-L1 binding inhibition at the molecular level (free proteins). As to conditions: read-out: FRET assay (IC50), Tag1-PD-L1 and Tag2-PD-1 proteins, twelve concentrations from 200 nM, 2 hours at room temperature, tested form: free base. For orientation: Time-resolved FRET reads energy transfer from a long-lived donor to a nearby acceptor.

In the case of `O=C1C[C@@H](CNC2CCCn3nc(C(=O)Nc4cccc(-c5cccc(NC(=O)c6ccc(CNCCO)cn6)c5Cl)c4Cl)cc32)CN1` (stereo partly shown), the IC50 is less than 0.01 µM.
